In US20230357422A1 (published 2023):

Target: HZ-L-Yr-13&14-16-1
Assay: ELISA on coated his-tagged protein
Procedure: Human 4-1BB-his, GITR-his, OX40-his, CD40-his proteins (purchased from ACRO) were dissolved according to the instructions, diluted to 1 μg/ml with ELISA coating solution (purchased from Shanghai Sangon), coated on ELISA plate at 100 allowed to stand overnight at 4° C., and washed for 3 times with PBST, 5% BSA (purchased from Shanghai Sangon) was added at 200 μl/well to block for 1 hour at room temperature. The coating solution was discarded, 4-1BB antibody diluted with 1% BSA was added at 100 200 nM in three replicate wells, and incubated at room temperature for 2 hours. Washing was performed with PBST for 3 times, and goat anti-human IgG-Fc-HRP (purchased from abcam) diluted with 1% BSA was added at 100 μl/well, and incubated at room temperature for 1 hour. Washing was performed 3 times with PBST, ELISA chromogenic solution (purchased from Solarbio) was added at 100 μl/well to react at room temperature for 3 minutes, ELISA stop solution (purchased from Solarbio) was added at 50 and the absorbance value at 450 nm was read.

binding result: no binding (tested: 200 nM)
B1: CD40-his (receptor, human, UniProt P25942 21-193, looked up)
chain: EPPTACREKQYLINSQCCSLCQPGQKLVSDCTEFTETECLPCGESEFLDTWNRETHCHQHKYCDPNLGLRVQQKGTSETDTICTCEEGWHCTSEACESCVLHRSCSPGFGVKQIATGVSDTICEPCPVGFFSNVSSAFEKCHPWTSCETKDLVVQQAGTNKTDVVCGPQDRLR
notes: 'Human' heads the list and is read as applying to all four proteins; not shown: his tag
